These results are taken from patent publication US20250243245A1 (priority 2022, published 2025).

Usually MIC stands for the lowest concentration found to suppress growth. Read a low MIC as a more susceptible organism.

In assay [1] the test system is E. coli BL21. Particulars: BL21, 24 h.
Assay [2] deals with E. coli strain BL21. Particulars: 5×10^5 cfu, 24 hours incubation; MIC range above which no bacterial growth.

Where a SMILES comes first, the peptide text is derived from it.

As to `CC[C@H](C)[C@H](NC(=O)[C@H](CCC(=O)O)NC(=O)[C@H](CC(C)C)NC(=O)[C@@H](NC(=O)[C@H](CCCCN)NC(=O)[C@H](CCC(=O)O)NC(=O)[C@@H]1CCCN1C(=O)[C@H](CC(C)C)NC(=O)[C@H](CCCCN)NC(=O)[C@@H](N)CCCCN)[C@@H](C)CC)C(=O)N[C@@H](CC(C)C)C(=O)NCC(=O)N[C@@H](CO)C(=O)NCC(=O)N[C@@H](Cc1ccc(O)cc1)C(=O)N[C@@H](CCCCN)C(=O)N[C@@H](CCCCN)C(=O)N[C@@H](CC(C)C)C(=O)N1CCC[C@H]1C(=O)N[C@@H](Cc1ccccc1)C(=O)N[C@@H](Cc1c[nH]c2ccccc12)C(=O)N[C@@H](CCC(N)=O)C(=O)N[C@@H](CCCNC(=N)N)C(=O)N[C@@H](CCCNC(=N)N)C(=O)N[C@H](C(=O)N[C@@H](CCCNC(=N)N)C(=O)N[C@@H](CCCNC(=N)N)C(=O)N[C@@H](Cc1c[nH]c2ccccc12)C(=O)N[C@@H](CCCNC(=N)N)C(=O)N[C@@H](CCCNC(=N)N)C(=O)O)[C@@H](C)CC` [Gen-2] (H-KKLPEKILEILGSGYKKLPFWQRRIRRWRR-OH; N-terminus and C-terminus assumed), the “IC99% (~MIC)” value in assay [1] stood at 4.48 ± 0.22 µM.
Take `CC[C@H](C)[C@H](NC(=O)[C@H](CCCCN)NC(=O)[C@H](CC(C)C)NC(=O)[C@@H](NC(=O)[C@H](CCCCN)NC(=O)[C@H](CCCCN)NC(=O)[C@@H]1CCCN1C(=O)[C@H](CC(C)C)NC(=O)[C@H](CCCCN)NC(=O)[C@@H](N)CCCCN)[C@@H](C)CC)C(=O)N[C@@H](CC(C)C)C(=O)NCC(=O)N[C@@H](CO)C(=O)NCC(=O)N[C@@H](Cc1ccc(O)cc1)C(=O)NCC(=O)N[C@@H](CO)C(=O)N1CCC[C@H]1C(=O)NCC(=O)N[C@@H](Cc1ccccc1)C(=O)N[C@@H](Cc1c[nH]c2ccccc12)C(=O)N[C@@H](CCC(N)=O)C(=O)N[C@@H](CCCNC(=N)N)C(=O)N[C@@H](CCCNC(=N)N)C(=O)N[C@H](C(=O)N[C@@H](CCCNC(=N)N)C(=O)N[C@@H](CCCNC(=N)N)C(=O)N[C@@H](Cc1c[nH]c2ccccc12)C(=O)N[C@@H](CCCNC(=N)N)C(=O)N[C@@H](CCCNC(=N)N)C(=O)O)[C@@H](C)CC` [Peptide 30P-3]: the “IC99% (~MIC)” value in assay [1] turned out to be 2.41 ± 0.11 µM.
As to `CC(C)C[C@@H]1NC(=O)[C@H](CCCNC(=N)N)NC(=O)[C@H](CCCNC(=N)N)NC(=O)[C@@H](NC(=O)[C@@H](N)CCCCN)CSSC[C@@H](C(=O)N[C@@H](CCCNC(=N)N)C(=O)NCC(=O)N[C@@H](CCCNC(=N)N)C(=O)N[C@@H](CCC(N)=O)C(=O)O)NC(=O)[C@H](Cc2ccc(O)cc2)NC(=O)[C@H]([C@@H](C)O)NC(=O)[C@H](C(C)C)NC(=O)[C@@H]2CSSC[C@H](NC1=O)C(=O)N[C@@H](Cc1ccc(O)cc1)C(=O)N[C@@H](CCCCN)C(=O)N[C@@H](CCC(N)=O)C(=O)N[C@@H](CCCNC(=N)N)C(=O)N2` [Peptide L19GA, KC2RRLC6YKQRC11VTYC15RGRQ], in assay [2], the MIC lay within 1250 to 2500 µM.
For the compound `CC[C@H](C)[C@H](NC(=O)[C@H](CCCNC(=N)N)NC(=O)[C@H](CCCNC(=N)N)NC(=O)[C@H](CCC(N)=O)NC(=O)[C@H](Cc1c[nH]c2ccccc12)NC(=O)[C@H](Cc1ccccc1)NC(=O)CNC(=O)[C@@H]1CCCN1C(=O)[C@H](CO)NC(=O)CNC(=O)[C@H](Cc1ccc(O)cc1)NC(=O)CNC(=O)[C@H](CO)NC(=O)[C@H](CCC(=O)O)NC(=O)[C@H](CC(C)C)NC(=O)[C@@H](NC(=O)[C@H](CCCCN)NC(=O)[C@H](CC(C)C)NC(=O)[C@@H](NC(=O)[C@H](CCCCN)NC(=O)[C@H](CCC(=O)O)NC(=O)[C@@H]1CCCN1C(=O)[C@H](CC(C)C)NC(=O)[C@H](CCCCN)NC(=O)[C@@H](N)CCCCN)[C@@H](C)CC)[C@@H](C)CC)C(=O)N[C@@H](CCCNC(=N)N)C(=O)N[C@@H](CCCNC(=N)N)C(=O)N[C@@H](Cc1c[nH]c2ccccc12)C(=O)N[C@@H](CCCNC(=N)N)C(=O)N[C@@H](CCCNC(=N)N)C(=O)O` [UGK-13] (H-KKLPEKILKILESGYGSPGFWQRRIRRWRR-OH), the “IC99% (~MIC)” value in assay [1] was found to be 1.40 ± 0.03 µM.
On the same count and under the same terms, the figure for `CC[C@H](C)[C@H](NC(=O)[C@H](CCCNC(=N)N)NC(=O)[C@H](CCCNC(=N)N)NC(=O)[C@H](CCC(N)=O)NC(=O)[C@H](Cc1c[nH]c2ccccc12)NC(=O)[C@H](Cc1ccccc1)NC(=O)CNC(=O)[C@@H]1CCCN1C(=O)[C@H](CO)NC(=O)CNC(=O)[C@H](CCCCN)NC(=O)[C@H](CC(C)C)NC(=O)[C@H](CO)NC(=O)[C@H](CCC(=O)O)NC(=O)[C@H](CC(C)C)NC(=O)[C@@H](NC(=O)[C@H](CCCCN)NC(=O)[C@H](CC(C)C)NC(=O)[C@@H](NC(=O)[C@H](CCCCN)NC(=O)[C@H](CCC(=O)O)NC(=O)[C@@H]1CCCN1C(=O)[C@H](CC(C)C)NC(=O)[C@H](CCCCN)NC(=O)[C@@H](N)CCCCN)[C@@H](C)CC)[C@@H](C)CC)C(=O)N[C@@H](CCCNC(=N)N)C(=O)N[C@@H](CCCNC(=N)N)C(=O)N[C@@H](Cc1c[nH]c2ccccc12)C(=O)N[C@@H](CCCNC(=N)N)C(=O)N[C@@H](CCCNC(=N)N)C(=O)O` [UGK-17] (H-KKLPEKILKILESLKGSPGFWQRRIRRWRR-OH) is 1.97 ± 0.06 µM.
